Measured affinities in a library of Ab-14 heavy chain variants

Source: Li et al. 2023 (doi:10.1038/s41467-023-39022-2), MIT Lincoln Laboratory and A-Alpha Bio; data file from the FLAb repository.

Binding partner: SARS-CoV-2 spike HR2 peptide, sequence PDVDLGDISGINAS.

Each scFv is VH, three GGGGS repeats, VL, as in the parent Ab-14, and differs from it in the CDRs of the heavy chain only.
VH: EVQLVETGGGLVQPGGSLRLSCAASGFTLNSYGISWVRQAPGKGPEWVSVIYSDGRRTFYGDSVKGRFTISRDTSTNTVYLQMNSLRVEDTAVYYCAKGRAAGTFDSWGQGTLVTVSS
VL: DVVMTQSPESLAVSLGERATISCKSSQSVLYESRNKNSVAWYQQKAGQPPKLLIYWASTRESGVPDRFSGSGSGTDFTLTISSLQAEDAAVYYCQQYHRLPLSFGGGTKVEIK

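The starting antibody came from a phage panning campaign against this peptide. This is the validation round: designs drawn from the data on random variants, tested in the same kind of assay. Their group label is 14H_GP_HC (GP: Gaussian process model; HC: hill climbing; a sequence that several methods proposed may carry one label only). Affinity was read by AlphaSeq, a pooled yeast mating assay with surface-displayed partners. Mating (16 h, 30 °C) was followed by selection of diploids and sequencing of their barcodes. Each replicate has its own calibration line, from reference interactions of the BCL2 family. Mating was done six times.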

Each variant is given by its three heavy chain CDRs, as the data file delimits them; those of the parent are GFTLNSYGIS, VIYSDGRRTFYGDSVK, GRAAGTFDS.
Numbers give log10(Kd / nM), so 0 is 1 nM and 3 is 1 µM. Smaller is tighter.
The mean shown is taken over the replicates in which the pair was detected.
A pair that was not seen in that replicate is written "ND"; this usually means weak binding, but a binder can also be missed.
Of ten entries with the parent sequence, four were seen in most replicates (averages 0.34 to 2.37), three in one and three in none, so single entries are noisy.
Values of this round are not directly comparable with the first-round values of the same sequences.
Empty control strains, which show no peptide, gave a signal in 1% of pairings with all heavy chain designs; the median was 2.08 and 95% of these signals were weaker than 0.84. No background was subtracted. For each scFv, signals with the empty controls are counted beside the result, with their mean in brackets.
The authors' rule: three or more of the six replicates give a measured affinity, fewer mean a poor binder.

CDR-H1	CDR-H2	CDR-H3	log10 Kd (nM) by replicate	mean log10 Kd (nM)	empty controls
GFWLNEYGIS	VIYSDGRRTFYHDSVK	GRAAGTFDQ	0.51 / 1.01 / 1.35 / 2.87 / 1.36 / 1.32	1.40	0 of 18
GFNLNEYGIS	VIYSDGRRTFYKDSVK	GRAAGTFDS	0.59 / 0.47 / 0.26 / 0.56 / 1.21 / 1.11	0.70	1 of 18 (2.09)
GFTLNSYGIS	VIYSDGRRTFYDDSVK	GQEAGTFDR	ND / 0.72 / 2.82 / 2.08 / 2.13 / 2.55	2.06	0 of 18
GFSLNSYGIS	VIYSDGRRTFYDDSVK	GLLAGTFDS	2.80 / ND / ND / ND / 2.85 / 2.31	2.65	0 of 18
DFDLNSYGIS	VIYSDGRRTFYGDSVK	GRQAGTFDS	1.19 / 0.70 / 0.54 / 1.51 / 1.20 / 1.10	1.04	1 of 18 (3.17)
GFWLNDYGIS	VIYSDGRRTFYADSVK	GRAAGTFDK	0.72 / 0.07 / 0.08 / 1.07 / ND / -0.18	0.35	0 of 18
GFQLNMYGIS	VIYSDGRRTVYGDSVK	GRAAGTFDS	ND / ND / ND / ND / 1.67 / 1.72	1.70	0 of 18
GFTLNSYGIS	VIYSDGERTFYADSVK	GQAAGTFDS	0.96 / 1.99 / ND / 0.40 / 0.78 / -0.06	0.81	0 of 18
GFTLNSYGIS	VIYSDGRRTFYDDSVK	GKLAGTFDT	2.37 / 1.30 / 0.81 / 1.06 / 1.66 / 2.20	1.56	0 of 18
GFTLNEYGIS	VIYSDGRRTMYGDSVK	GRAAGTFIS	-0.49 / 0.38 / 0.08 / 0.09 / 0.06 / -0.04	0.01	0 of 18
GFTLNDYGIS	VIYSDGRRTMYGDSVK	GRQAGTFDS	0.15 / 0.57 / 0.86 / 0.08 / 0.28 / 0.67	0.44	1 of 18 (3.75)
GFSLNEYGIS	VIYSDGRRTFYGDSVK	GWAAGTFDR	ND / ND / ND / ND / ND / ND	ND	0 of 18
GFDLNSYGIS	VIYSDGRRTFYSDSVK	GRAAGHFDS	0.44 / 0.99 / 1.38 / 1.22 / 0.54 / 1.28	0.97	0 of 18
GFDLNSYGIS	VIYSDGRRTFYHDSVK	GRAAGIFNS	ND / ND / ND / ND / 2.88 / ND	2.88	2 of 18 (2.01)
GFTLNEYGIS	VIYADGRRTFYGDSVK	GRAAGTFDQ	ND / ND / ND / ND / 0.58 / ND	0.58	0 of 18
GFELNEYGIS	VIYSDGRRTFYGDSVK	GRNAGTFDD	ND / 0.15 / 0.44 / 0.47 / 0.45 / ND	0.38	0 of 18
GFSLNEYGIS	VIYADGRRTFYGDSVK	GHAAGTFDS	-0.53 / -0.83 / 0.00 / -0.68 / -0.93 / -0.56	-0.59	0 of 18
GFTLNSYGIS	VIYSDGRRTFYSDSVK	GQAAGIFDT	ND / ND / ND / ND / ND / ND	ND	0 of 18
GFTLMSYGIS	VIYADGRRTFYGDSVK	GQAAGTFDS	1.31 / 1.00 / 0.86 / 0.97 / 0.81 / 0.99	0.99	2 of 18 (2.43)
GFDLNEYGIS	VIYSDGRRTFYHDSVK	GRFAGTFDS	1.02 / 1.30 / 0.36 / ND / 0.34 / 0.61	0.73	1 of 18 (0.87)
GFTLNEYGIS	VIYSDGRRTFYGDSVK	GRAGGTFMS	1.03 / 0.31 / 2.98 / 0.12 / 1.08 / 1.74	1.21	0 of 18
GFDLNSYGIS	VIYSDGRRTFYFDSVK	GRAAGTFDS	ND / ND / ND / ND / 2.10 / ND	2.10	0 of 18
GFTLNEYGIS	VIYSDGVRTFYIDSVK	GRAAGTFDS	0.75 / 0.53 / 0.69 / 0.30 / 0.74 / 0.66	0.61	2 of 18 (3.33)
GFLLNDYGIS	VIYSDGRRTFYKDSVK	GSAAGTFDS	0.85 / 0.66 / 0.25 / 0.99 / 0.49 / 0.50	0.62	0 of 18
GFDLNSYGIS	VIYSDGRRTFYIDSVK	GRAAGTFDK	2.07 / ND / ND / ND / 2.27 / ND	2.17	0 of 18
GFTLNEYGIS	VIYSDGRRTFYGDSVK	GRAAGTFKQ	ND / ND / ND / ND / ND / ND	ND	0 of 18
GFTLDSYGIS	VIYSDGRRTFYGDSVK	GRQAGTFIS	1.69 / 1.98 / 1.39 / 1.99 / 2.41 / 1.02	1.75	0 of 18
GFTLNSYGIS	VIYSDGRRTFYSDSVK	GMQAGTFDS	0.38 / 0.41 / 1.01 / 0.13 / -0.05 / 0.65	0.42	0 of 18
GFSLNDYGIS	VIYSDGRRTFYGDSVK	GRAALTFDK	ND / ND / ND / ND / ND / ND	ND	0 of 18
GFQLNEYGIS	VIYSDGRRTQYIDSVK	GRAAGTFDS	0.58 / 0.43 / 0.14 / 0.59 / 2.74 / 1.11	0.93	2 of 18 (1.24)
GFTLNDYGIS	VIYSDGRRTFYLDSVK	GRAAGTFDK	1.21 / 1.49 / 1.54 / 0.97 / 1.20 / 1.55	1.33	0 of 18
GFHLNSYGIS	VIYSDGRRTFYIDSVK	GKLAGTFDS	ND / ND / ND / 1.58 / ND / ND	1.58	0 of 18
GFTLDSYGIS	VIYSDGRRTFYKDSVK	GRLAGTFDS	ND / ND / ND / ND / ND / ND	ND	1 of 18 (1.28)
GFTLNDYGIS	VIYSDGRRMIYIDSVK	GRAAGTFDS	ND / ND / ND / ND / ND / 1.28	1.28	0 of 18
GFSLNSYGIS	VIYSDGRRTFYDDSVK	GMAAGTFDS	-0.03 / ND / 0.28 / 0.57 / -0.09 / -0.30	0.09	0 of 18
GFTLESYGIS	VIYSDGRRTFYGDSVK	GRAAGTFTM	ND / ND / ND / ND / 1.41 / ND	1.41	0 of 18
LFTLNEYGIS	VIYSDGRRTFYQDSVK	GRTAGTFDS	ND / 1.66 / ND / 1.19 / 1.70 / 1.15	1.42	0 of 18
GFTLNSYGIS	VIYSDGRRTFYGDSVK	GRAAGSFTD	1.85 / 3.20 / 1.37 / ND / 2.09 / 1.51	2.00	0 of 18

The last 6 entries again:

CDR-H1	CDR-H2	CDR-H3	log10 Kd (nM) by replicate	mean log10 Kd (nM)	empty controls
GFTLDSYGIS	VIYSDGRRTFYKDSVK	GRLAGTFDS	ND / ND / ND / ND / ND / ND	ND	1 of 18 (1.28)
GFTLNDYGIS	VIYSDGRRMIYIDSVK	GRAAGTFDS	ND / ND / ND / ND / ND / 1.28	1.28	0 of 18
GFSLNSYGIS	VIYSDGRRTFYDDSVK	GMAAGTFDS	-0.03 / ND / 0.28 / 0.57 / -0.09 / -0.30	0.09	0 of 18
GFTLESYGIS	VIYSDGRRTFYGDSVK	GRAAGTFTM	ND / ND / ND / ND / 1.41 / ND	1.41	0 of 18
LFTLNEYGIS	VIYSDGRRTFYQDSVK	GRTAGTFDS	ND / 1.66 / ND / 1.19 / 1.70 / 1.15	1.42	0 of 18
GFTLNSYGIS	VIYSDGRRTFYGDSVK	GRAAGSFTD	1.85 / 3.20 / 1.37 / ND / 2.09 / 1.51	2.00	0 of 18